# Membrane permeability of cyclic peptides

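Lipid, pH, incubation time, direction and concentration are not recorded in the data file. Other peptides of the study may be missing here. Peptides that the database sets to -10, its floor, are left out.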

PAMPA is the parallel artificial membrane permeability assay, which has no cells and reads passive diffusion. P is given in units of 10^-6 cm/s (from log10 values with two decimals); larger means faster passage.

SMILES	PAMPA (10^-6 cm/s)
CCCN1CC(=O)N[C@@H](CC(C)C)C(=O)N(C)[C@@H](CC(C)C)C(=O)N2CCC[C@@H]2C(=O)N(C)[C@@H](CC(C)C)C(=O)N[C@@H](Cc2ccccc2)C1=O	9.8
CC(C)C[C@@H]1NC(=O)[C@@H]2CCCN2C(=O)[C@H](CC(C)C)NC(=O)CN(Cc2ccccc2)C(=O)C[C@H](Cc2ccccc2)NC(=O)[C@H](Cc2ccccc2)NC1=O	1.5
CC(C)C[C@@H]1C(=O)N2CCC[C@H]2C(=O)N(Cc2ccccc2)CC(=O)N[C@@H](Cc2ccccc2)C(=O)N[C@@H](Cc2ccccc2)CC(=O)N(C)[C@@H](CC(C)C)C(=O)N1C	3
CC(C)C[C@H]1C(=O)N[C@@H](Cc2ccccc2)C(=O)N[C@H](C)C(=O)N(Cc2ccccc2)CC(=O)N[C@@H](Cc2ccccc2)CC(=O)N2CCC[C@@H]2C(=O)N1C	2.3
C[C@@H]1NC(=O)[C@@H]2CCCN2C(=O)[C@H](Cc2ccccc2)NC(=O)CN(Cc2ccccc2)C(=O)[C@@H]2CCCN2C(=O)C[C@H](Cc2ccccc2)NC(=O)CN(Cc2ccccc2)C1=O	0.39
CCCN1CC(=O)N(Cc2ccccc2)CC(=O)N[C@@H](Cc2ccccc2)CC(=O)N2CCC[C@@H]2C(=O)N[C@H](CC(C)C)C(=O)N[C@@H](Cc2ccccc2)C(=O)N2CCC[C@H]2C1=O	0.36
CCCN1CC(=O)N(Cc2ccccc2)CC(=O)N[C@@H](Cc2ccccc2)CC(=O)N2CCC[C@H]2C(=O)N[C@@H](CC(C)C)C(=O)N[C@@H](Cc2ccccc2)C(=O)N2CCC[C@H]2C1=O	0.52
CC(C)C[C@H]1NC(=O)C[C@H](Cc2ccccc2)NC(=O)[C@H]2CCCN2C(=O)[C@H](Cc2ccccc2)NC(=O)CN(Cc2ccccc2)C(=O)[C@H]2CCCN2C(=O)CN(Cc2ccccc2)C1=O	0.71
CC(C)C[C@@H]1C(=O)N[C@@H](Cc2ccccc2)CC(=O)N2CCC[C@H]2C(=O)N(Cc2ccccc2)CC(=O)N[C@@H](Cc2ccccc2)C(=O)N2CCC[C@H]2C(=O)N[C@@H](C)C(=O)N1C	1.6
CC(C)C[C@H]1NC(=O)C[C@H](Cc2ccccc2)NC(=O)[C@H](Cc2ccccc2)NC(=O)CN(Cc2ccccc2)C(=O)[C@@H]2CCCN2C(=O)[C@H](CC(C)C)N(C)C1=O	5.2
CC(C)C[C@@H]1NC(=O)C[C@H](Cc2ccccc2)NC(=O)[C@H](Cc2ccccc2)NC(=O)[C@H](CC(C)C)N(C)C(=O)[C@H]2CCCN2C(=O)CN(Cc2ccccc2)C1=O	5.9
CCCN1CC(=O)N[C@H](CC(C)C)C(=O)N[C@@H](Cc2ccccc2)CC(=O)N2CCC[C@H]2C(=O)N(Cc2ccccc2)CC(=O)N[C@@H](Cc2ccccc2)C(=O)N2CCC[C@@H]2C1=O	0.6
CCCN1CC(=O)N[C@@H](CC(C)C)C(=O)N(Cc2ccccc2)CC(=O)N2CCC[C@H]2C(=O)N(Cc2ccccc2)CC(=O)N[C@@H](Cc2ccccc2)C1=O	5.2

Repeated from above, the 2 entries with the highest PAMPA:

SMILES	PAMPA (10^-6 cm/s)
CCCN1CC(=O)N[C@@H](CC(C)C)C(=O)N(C)[C@@H](CC(C)C)C(=O)N2CCC[C@@H]2C(=O)N(C)[C@@H](CC(C)C)C(=O)N[C@@H](Cc2ccccc2)C1=O	9.8
CC(C)C[C@@H]1NC(=O)C[C@H](Cc2ccccc2)NC(=O)[C@H](Cc2ccccc2)NC(=O)[C@H](CC(C)C)N(C)C(=O)[C@H]2CCCN2C(=O)CN(Cc2ccccc2)C1=O	5.9

Data: CycPeptMPDB; original report Townsend et al. 2020, doi:10.26434/chemrxiv.13335941.v1.